The target of the assay is HuBChE-Wild Type (Homo sapiens, UniProt P06276). Nature of the assay: HuBChE inhibition kinetics. The class given is biochemical.

Sequences of proteins named here, by UniProt entry; tags and fusion partners are left off. Residues count along the entry.
UniProt P06276, 29-602: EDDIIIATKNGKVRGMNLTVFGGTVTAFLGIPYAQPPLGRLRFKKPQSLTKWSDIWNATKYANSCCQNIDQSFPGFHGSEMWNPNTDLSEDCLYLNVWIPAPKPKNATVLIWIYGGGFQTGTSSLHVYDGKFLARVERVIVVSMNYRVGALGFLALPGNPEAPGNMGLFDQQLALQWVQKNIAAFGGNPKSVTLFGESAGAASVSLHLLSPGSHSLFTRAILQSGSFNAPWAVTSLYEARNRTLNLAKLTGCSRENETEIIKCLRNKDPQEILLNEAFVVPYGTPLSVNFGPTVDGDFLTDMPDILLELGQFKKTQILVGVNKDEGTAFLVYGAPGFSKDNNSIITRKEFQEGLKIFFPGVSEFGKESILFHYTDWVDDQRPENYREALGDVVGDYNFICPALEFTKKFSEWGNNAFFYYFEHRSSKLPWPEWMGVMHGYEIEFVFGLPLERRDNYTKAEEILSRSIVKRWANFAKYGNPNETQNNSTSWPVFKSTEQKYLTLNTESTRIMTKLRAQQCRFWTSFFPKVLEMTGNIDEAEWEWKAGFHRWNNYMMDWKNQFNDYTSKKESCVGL

Each structure is given as a SMILES string.

For the molecule `CCN(C)C(=O)Oc1cccc([C@H](C)N(C)C)c1` [Rivastigmine, rivastigmine], the dissociation constant (Kd) – broadly, the equilibrium constant for the complex coming apart – amounted to 3.8 ± 0.1 µM.

The record behind these values is publication PMC2949283 (The Biochemical journal, 2009).
